{"source": "patent EP4717267A1", "about": "“SYNERGISTIC COMBINATION FOR TREATING CANCER” (FUNDACION UNIVERSITARIA SAN ANTONIO (UCAM), priority 2023, dated 2024)", "origin": "cited, not measured here", "test_system": "MDA-MB-231 breast carcinoma cells", "details": "cited from earlier work", "note": "Read-outs that look alike come from different tables or passages of the source.", "data": [{"compound": "COc1cccc2c1C(=O)c1c(O)c3c(c(O)c1C2=O)C[C@@](O)(C(=O)CO)C[C@@H]3O[C@H]1C[C@H](N)[C@H](O)[C@H](C)O1", "note": "[Doxorubicin, (7S,9S)-7-[(2R,4S,5S,6S)-4-amino-5-hydroxy-6 methyloxan-2-yl]oxy-6,9,11-trihydroxy-9-(2-hydroxyacetyl)-4-methoxy-8,10-dihydro-7H tetracene-5,12-dione]", "values": [{"measurement": "MDA-MB-231 cell viability, of untreated control", "setting": "0.05 nM Doxorubicin alone", "value": 54, "unit": "%"}, {"measurement": "MDA-MB-231 cell viability, of untreated control", "setting": "0.1 nM Doxorubicin alone", "value": 48, "unit": "%"}]}]}
